ChEMBL document CHEMBL2424629, “Structure-based design, synthesis, and anticonvulsant activity of isatin-1-N-phenylacetamide derivatives” (Med Chem Res, 2013)

Organism: Mus musculus
Assay: Protective index, ratio of TD50 for BALB/c mouse by rotarod test to ED50 for BALB/c mouse by maximal electroshock seizure test
Type: functional

For NC(=O)N1c2ccccc2C=Cc2ccccc21 [CARBAMAZEPINE], the “Ratio TD50/ED50” value was 8.1.
